{
  "source": "ChEMBL document CHEMBL1143395",
  "about": "“Cloning, expression, post-translational modifications and inhibition studies on the latest mammalian carbonic anhydrase isoform, CA XV” (J Med Chem, 2009)",
  "biological_target": "T1, Carbonic anhydrase 15 (Mus musculus, UniProt Q99N23)",
  "T1 sequence (Q99N23 whole entry)": "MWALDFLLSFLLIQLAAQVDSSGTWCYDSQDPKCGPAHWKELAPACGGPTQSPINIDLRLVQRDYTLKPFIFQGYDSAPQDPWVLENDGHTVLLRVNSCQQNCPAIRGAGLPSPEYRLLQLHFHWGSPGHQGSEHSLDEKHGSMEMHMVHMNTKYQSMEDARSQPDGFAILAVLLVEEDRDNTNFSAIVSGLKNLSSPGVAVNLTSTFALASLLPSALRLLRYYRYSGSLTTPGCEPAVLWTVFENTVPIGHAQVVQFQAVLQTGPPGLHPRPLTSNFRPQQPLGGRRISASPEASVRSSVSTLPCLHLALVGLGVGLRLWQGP",
  "data": [
    {"smiles": "Cc1ccc(-c2cc(C(F)(F)F)nn2-c2ccc(S(N)(=O)=O)cc2)cc1", "note": "[CELECOXIB]", "values": [
      {"measurement": "Ki", "value": 45, "unit": "nM"}
    ]}
  ]
}
